# Apparent affinities of Ab-95 variants for a coronavirus HR2 peptide

The target is the same throughout: PDVDLGDISGINAS, from the HR2 region of SARS-CoV-2 spike.

Each scFv is VH, three GGGGS repeats, VL, as in the parent Ab-95, and differs from it in the CDRs of the light chain only.
VH: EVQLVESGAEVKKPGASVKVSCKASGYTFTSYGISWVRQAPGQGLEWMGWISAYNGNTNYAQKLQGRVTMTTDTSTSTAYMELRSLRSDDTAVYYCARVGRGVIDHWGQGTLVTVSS
VL: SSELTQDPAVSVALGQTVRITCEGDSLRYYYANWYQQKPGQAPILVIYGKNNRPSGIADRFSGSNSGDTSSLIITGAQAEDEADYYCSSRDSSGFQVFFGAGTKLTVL

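The starting antibody came from a phage panning campaign against this peptide. In library AAYL52, one, two or three CDR residues were substituted; doubles and triples were drawn at random. The assay is AlphaSeq: two haploid yeast populations carry antibody and antigen on their surface. The frequency of each diploid, read from paired DNA barcodes, reflects how well the two displayed proteins bind. A regression on co-assayed BCL2-family reference pairs converts the normalised counts of each replicate to an apparent Kd. There are three technical replicates.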

The parent's light chain CDRs are EGDSLRYYYAN, GKNNRPS, SSRDSSGFQVF; each variant's own CDRs replace them letter for letter. Numbers give log10(Kd / nM), so 0 is 1 nM and 3 is 1 µM. Smaller is tighter. Averages over replicates are reported, and they cover detected replicates only. "ND" means that the variant was in the library but no mating with the target was seen in that replicate; the authors take this as a sign of poor binding, and no number exists. As a blank, each scFv also met three strains without target: over library AAYL52, 28% of these pairings were detected, typically at 3.91 and seldom below 2.90. Also given: how often the same scFv was detected with the empty control strains, with their mean in brackets.

CDR-L1,CDR-L2,CDR-L3,log10 Kd (nM) by replicate,"mean, log10 nM",empty controls
EGDSIRHYYAN,GKNNRPS,SSRDNSGFQVF,2.55 3.06 3.06,2.89,2 of 9 (4.27)
EGCMLRYYYAN,GKNNRPS,SSRDSSKFQVF,ND ND ND,ND,0 of 9
EGDSLRYYYAT,GKNNRPS,SSRNSVGFQVF,4.91 3.73 ND,4.32,5 of 9 (4.17)
EGDRLRYYVAN,GKNNRPS,SSRHSSGFQVF,ND ND ND,ND,5 of 9 (3.99)
EGDSLRYYAAR,GKNNRPS,SLRDSSGFQVF,2.62 2.13 2.02,2.26,2 of 9 (4.06)
EGDSLRYYYAT,GKNNRSS,SSRDSSGWQVF,4.47 ND ND,4.47,2 of 9 (3.70)
EGDDLAYYYAN,GKNNVPS,SSRDSSGFQVF,3.02 3.89 3.53,3.48,4 of 9 (4.21)
EGDSLRYYKAN,GKNNRPS,SCRDSTGFQVF,2.24 2.18 1.83,2.08,2 of 9 (3.32)
EGDSLRYYYAN,GKNNRPH,SSRDNSGFEVF,2.87 2.43 2.51,2.60,3 of 9 (4.11)
EGQSLRYYYAN,GKNQRPS,SSRDSSGFQVP,2.25 2.13 2.02,2.14,3 of 9 (4.05)
EKDSLRYYYAN,GKMNRPS,SSVDSSGFQVF,5.24 4.32 ND,4.78,2 of 9 (4.73)
EGDSLRVYKAN,GKNNRPS,SSQDSSGFQVF,4.11 4.64 3.51,4.09,2 of 9 (3.72)
EGDSLKYYYAN,GKNNRPS,SSRDSCGFQVF,4.58 ND ND,4.58,3 of 9 (4.02)
EGDSLRYYYAN,GKNNRPS,SSRDYSPFQVV,ND ND ND,ND,0 of 9
EGDSLRYKYAN,GDNNRPS,SSRCSSGFQVF,2.07 1.95 1.52,1.85,3 of 9 (3.26)
EGDSIRYYYAN,GKNNRPG,SSRDSSGFQVH,3.45 2.42 3.76,3.21,4 of 9 (3.69)
EGDSLRYYYAN,GKNARPS,SSRDSLPFQVF,2.67 2.33 0.89,1.97,1 of 9 (4.70)
EGDSLWYYYAN,GKWNRPS,SHRDSSGFQVF,ND ND ND,ND,1 of 9 (3.01)
EGDSLRYYWAN,DKNNRPS,SSRNSSGFQVF,ND ND ND,ND,0 of 9
EGDSLREVYAL,GKNNRPS,SSRDSSGFQVF,1.97 2.33 2.42,2.24,5 of 9 (3.83)
EGDSLRDYYAN,GKNNRKS,SSRDSSGFQVF,2.46 2.51 1.82,2.26,3 of 9 (4.03)
EGDSLRYYYAS,GKNNRPS,SSRDSFGFQVF,5.03 4.34 3.25,4.21,5 of 9 (3.20)
EGDSLRYYYAN,MKNNRCS,SSRDSSGFQRF,ND ND 4.44,4.44,3 of 9 (4.02)
EGDSIRYYYAN,PKNNRPP,SSRDSSGFQVF,3.50 5.81 ND,4.66,4 of 9 (4.32)
EGDSLRYYYPN,GRNNRPS,SSNDSSGFQVF,ND ND ND,ND,2 of 9 (3.79)
YGDGLRYYYAN,GKFNRPS,SSRDSSGFQVF,ND 4.87 ND,4.87,4 of 9 (3.75)
EGDSLLYYYFN,GKNNRPS,SSRDSSGFQVF,ND 4.21 ND,4.21,3 of 9 (4.41)
EFDTLRYCYAN,GKNNRPS,SSRDSSGFQVF,2.58 2.62 3.45,2.88,3 of 9 (4.11)
EGDSLRYYYAN,GKNNTPS,SSRDSSTFNVF,3.45 4.35 4.37,4.06,3 of 9 (4.48)
EGDDLRYYYAN,GKINRPS,SSRDSSGCQVF,3.68 3.71 ND,3.69,2 of 9 (3.99)
EGDSLRYYYAN,GKNNRPT,SSIDSSGFQVF,3.41 2.76 3.31,3.16,5 of 9 (4.45)
ECDELRYYYAN,GCNNRPS,SSRDSSGFQVF,3.31 3.94 ND,3.63,2 of 9 (3.79)
EGASLRYYYAN,GKPNRPS,SSRDSSGFQVC,4.64 3.67 ND,4.15,1 of 9 (4.14)
EGDSLFYFYAN,GKNVRPS,SSRDSSGFQVF,2.24 2.77 2.49,2.50,5 of 9 (4.07)
EGYSLRYYYAN,GKNNRPS,SVRGSSGFQVF,3.17 2.75 2.89,2.94,0 of 9
EGDSLFYYYPN,GKNNRPS,SSRDSSGFQVE,4.04 2.59 3.55,3.39,1 of 9 (3.75)
EGDSLRYYYAN,GKNNRVS,SSRDESRFQVF,4.00 3.07 3.71,3.59,4 of 9 (3.68)
EGDSLRYYYAG,GSNNTPS,SSRDSSGFQVF,4.26 4.19 ND,4.23,2 of 9 (3.32)
EGDSLRYYYAN,GNNNAPS,SSRDSSGFQVF,2.79 2.80 2.38,2.66,1 of 9 (4.91)
EGDSLRYYYYN,GKNARPS,SSRDSSGFQVF,3.80 5.07 ND,4.44,3 of 9 (4.65)
EGDPLRYYYAN,GKNNRPS,SSKDSHGFQVF,ND 3.87 4.11,3.99,2 of 9 (3.84)

The opening 4 entries, copied out:

| CDR-L1 | CDR-L2 | CDR-L3 | log10 Kd (nM) by replicate | mean, log10 nM | empty controls |
|---|---|---|---|---|---|
| EGDSIRHYYAN | GKNNRPS | SSRDNSGFQVF | 2.55 3.06 3.06 | 2.89 | 2 of 9 (4.27) |
| EGCMLRYYYAN | GKNNRPS | SSRDSSKFQVF | ND ND ND | ND | 0 of 9 |
| EGDSLRYYYAT | GKNNRPS | SSRNSVGFQVF | 4.91 3.73 ND | 4.32 | 5 of 9 (4.17) |
| EGDRLRYYVAN | GKNNRPS | SSRHSSGFQVF | ND ND ND | ND | 5 of 9 (3.99) |

The measurements come from Engelhart et al. 2022 (doi:10.1038/s41597-022-01779-4) through the FLAb antibody collection.